Assay results: ChEMBL document CHEMBL1130791, “Novel HIV-protease inhibitors containing beta-hydroxyether and -thioether dipeptide isostere surrogates: modification of the P3 ligand” (Bioorg Med Chem Lett, 1998)

Molecular target: Human immunodeficiency virus type 1 protease (Human immunodeficiency virus 1, UniProt Q72874)
Test: Inhibitory activity against HIV-1 protease using scintillation proximity assay (SPA assay)

How did the IC50 turn out when `CC(C)(C)NC(=O)c1ccccc1OC[C@H](O)[C@H](Cc1ccccc1)NC(=O)[C@H](CC(N)=O)NS(=O)(=O)c1ccc2ccccc2c1` was run?
The IC50 was 0.425 µM.
